According to patent publication US20080214451A1:

Molecular target: PAR4 (protease-activated receptor 4) (human) (UniProt Q96RI0)
Assay: cell-based or functional assay

EC50 of thrombin activation of PAR4-dependent aggregation of human platelets, with bivalirudin alone or bivalirudin plus RWJ-56110; similar with PAR1-Ab: 10 to 11 nM
Substance: thrombin (from UniProt P00734 328-622) (enzyme)
